Active and inactive are the calls of the source.
Legend:
HCI-013 [1] = assay: Antitumor activity against patient-derived human HCI-013 cells harboring ESR1 Y537S mutant xenografted in NOD SCID mouse assessed as tumor regression at 100 mg/kg, po administered once daily for 28 to 29 days by calipers method; type: functional, organism-based; conditions: time 28-29 day
Rattus norvegicus [2] = assay: In vivo inverse agonist activity at estrogen receptor in CRL:CD(SD) rat assessed as appearance of tall columnar phenotype of epithelial cells in endometrium 10 mg/kg, po administered for 4 days and measured at 4 hr post last dose on day 4 by hematoxylin and eosin staining based assay relative to control; type: functional, organism-based; conditions: time 4.0 day
HCI-013 [3] = assay: Antitumor activity against patient-derived human HCI-013 cells harboring ESR1 Y537S mutant xenografted in NOD SCID mouse assessed as reduction in tumor growth at 100 mg/kg, po administered once daily for 28 days by calipers method; type: functional, organism-based; conditions: time 28.0 day
HCI-013 [4] = assay: Antitumor activity against patient-derived human HCI-013 cells harboring ESR1 Y537S mutant xenografted in NOD SCID mouse assessed as reduction in tumor growth at 50 mg/kg, sc administered once daily at day 1,3 and 8 followed by 25 mg/kg dosed twice weekly for 2 to 4 weeks and measured after 28 days by calipers method; type: functional, organism-based
MCF7 = assay: Antitumor activity against human MCF7 cells xenografted in nude mouse assessed as reduction in tumor growth at 50 mg/kg, sc administered once daily at day 1,3 and 8 followed by 25 mg/kg dosed twice weekly for 2 to 4 weeks cotreated with palbociclib and measured after 28 days by calipers method; type: functional, organism-based
HCI-013 [5] = assay: Antitumor activity against patient-derived human HCI-013 cells harboring ESR1 Y537S mutant xenografted in NOD SCID mouse assessed as reduction in tumor growth at 0.1 to 1 mg/kg, po administered once daily for 29 days by calipers method; type: functional, organism-based; conditions: dose 0.1-1 mg/kg, time 29.0 day
Estrogen receptor [6] = molecular target: T1, Estrogen receptor (Homo sapiens, UniProt P03372); assay: Induction of estrogen receptor degradation in human CAMA1 cells at 0.1 to 1000 nM incubated for 24 hrs by Western blot analysis; type: cell-based; conditions: CAMA-1, dose 0.1-1000 nM
Estrogen receptor [7] = molecular target: T1, Estrogen receptor; assay: Induction of estrogen receptor degradation in human MDA-MB-134-VI cells at 0.1 to 1000 nM incubated for 24 hrs by Western blot analysis; type: cell-based; conditions: dose 0.1-1000 nM
Rattus norvegicus [8] = assay: In vivo inverse agonist activity at estrogen receptor in CRL:CD(SD) rat assessed as appearance of tall columnar phenotype of epithelial cells in endometrium at 0.1 to 10 mg/kg, po administered for 4 days and measured at 4 hr post last dose on day 4 by hematoxylin and eosin staining based assay relative to control; type: functional, organism-based; conditions: dose 0.1-10 mg/kg, time 4.0 day
Rattus norvegicus [9] = assay: In vivo inverse agonist activity at estrogen receptor in CRL:CD(SD) rat assessed as decrease in uterine wet weight to body weight ratio at 10 mg/kg, po administered for 4 days and measured at 4 hr post last dose on day 4 relative to control; type: functional, organism-based; conditions: time 4.0 day
Mus musculus = assay: Reduction in ERalpha level in tumor of nude mouse xenografted with human HCI-013 cells harboring ESR1Y537S mutant at 1 to 10 mg/kg, po administered once daily for 3 days by calipers method; type: functional, organism-based; conditions: dose 1-10 mg/kg, time 3.0 day
Estrogen receptor [10] = molecular target: T1, Estrogen receptor; assay: Induction of estrogen receptor degradation in human MDA-MB-330 cells at 0.1 to 1000 nM incubated for 24 hrs by Western blot analysis; type: cell-based; conditions: dose 0.1-1000 nM
Estrogen receptor [11] = molecular target: T1, Estrogen receptor; assay: Induction of estrogen receptor degradation in human EFM19 cells at 0.1 to 1000 nM incubated for 24 hrs by Western blot analysis; type: cell-based; conditions: EFM-19, dose 0.1-1000 nM
Rattus norvegicus [12] = assay: In vivo inverse agonist activity at estrogen receptor in CRL:CD(SD) rat assessed as decrease in uterine wet weight to body weight ratio at 0.1 to 10 mg/kg, po administered for 4 days and measured at 4 hr post last dose on day 4 relative to control; type: functional, organism-based; conditions: dose 0.1-10 mg/kg, time 4.0 day
Estrogen receptor [13] = molecular target: T1, Estrogen receptor; assay: Induction of estrogen receptor degradation in human T-47D cells at 0.1 to 1000 nM incubated for 24 hrs by Western blot analysis; type: cell-based; conditions: T47D, dose 0.1-1000 nM

Protein sequences, listed by entry. Tags and fused reporters are not part of them.
UniProt P03372, whole entry: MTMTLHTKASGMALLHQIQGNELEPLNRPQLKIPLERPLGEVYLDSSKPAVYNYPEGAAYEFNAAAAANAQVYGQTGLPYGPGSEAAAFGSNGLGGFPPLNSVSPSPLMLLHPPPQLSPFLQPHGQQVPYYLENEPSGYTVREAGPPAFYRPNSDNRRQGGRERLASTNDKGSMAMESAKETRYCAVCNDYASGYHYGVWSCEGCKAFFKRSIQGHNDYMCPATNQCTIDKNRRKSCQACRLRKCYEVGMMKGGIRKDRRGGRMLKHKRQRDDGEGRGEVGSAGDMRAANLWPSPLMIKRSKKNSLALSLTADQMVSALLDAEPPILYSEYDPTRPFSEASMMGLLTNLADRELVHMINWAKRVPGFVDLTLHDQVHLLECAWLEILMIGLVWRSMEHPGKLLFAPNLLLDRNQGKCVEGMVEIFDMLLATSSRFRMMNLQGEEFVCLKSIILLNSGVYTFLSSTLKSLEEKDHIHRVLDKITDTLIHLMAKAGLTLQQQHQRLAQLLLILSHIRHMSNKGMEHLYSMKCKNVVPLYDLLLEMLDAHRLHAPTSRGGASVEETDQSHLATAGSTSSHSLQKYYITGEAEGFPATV

Measured: Activity

CC1=C(c2cccc(O)c2)[C@H](c2ccc(OCCN3CC(CF)C3)cc2)Oc2ccc(O)cc21
active: HCI-013 [1] | Rattus norvegicus [2]

CC/C(=C(/c1ccc(/C=C/C(=O)O)cc1)c1ccc2[nH]ncc2c1)c1ccc(F)cc1Cl [BRILANESTRANT]
active: HCI-013 [3]

C[C@]12CC[C@@H]3c4ccc(O)cc4C[C@@H](CCCCCCCCC[S+]([O-])CCCC(F)(F)C(F)(F)F)[C@H]3[C@@H]1CC[C@@H]2O (stereo not given in full) [FULVESTRANT]
active: HCI-013 [4] | MCF7

C[C@@H]1Cc2c([nH]c3ccccc23)[C@@H](c2c(F)cc(NC3CN(CCCF)C3)cc2F)N1CC(F)(F)CO [GIREDESTRANT]
not listed: HCI-013 [1] | Rattus norvegicus [2] | HCI-013 [3] | HCI-013 [4] | MCF7
active: all other assays above

— ChEMBL document CHEMBL4825708, “GDC-9545 (Giredestrant): A Potent and Orally Bioavailable Selective Estrogen Receptor Antagonist and Degrader with an Exceptional Preclinical Profile for ER+ Breast Cancer” (J Med Chem, 2021)
